Laboratory results from PMC8807614 (Scientific Reports, 2022).

Target: T1, human prolactin releasing peptide receptor (GPR10) (Homo sapiens, UniProt P49683)
T1 sequence (P49683 1-370): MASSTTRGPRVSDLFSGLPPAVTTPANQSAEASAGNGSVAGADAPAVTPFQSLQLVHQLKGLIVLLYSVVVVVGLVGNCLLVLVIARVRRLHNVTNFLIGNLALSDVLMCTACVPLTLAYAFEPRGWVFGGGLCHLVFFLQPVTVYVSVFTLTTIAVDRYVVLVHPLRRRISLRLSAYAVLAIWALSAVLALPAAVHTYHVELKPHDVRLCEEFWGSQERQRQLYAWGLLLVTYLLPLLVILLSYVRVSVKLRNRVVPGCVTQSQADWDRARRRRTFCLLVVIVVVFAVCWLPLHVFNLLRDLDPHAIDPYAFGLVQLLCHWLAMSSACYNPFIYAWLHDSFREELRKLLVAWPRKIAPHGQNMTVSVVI
Assay: GPR10 functional activity assay (IP1, HTRF)
Type: cell-based
Details: Chem-1 cells stably expressing human GPR10, 10.000 cells/well; HTRF IP1 (CisBio); 30 min at 37 °C; IP1 stimulation buffer with 0.05% casein; 11 concentrations
Procedure: Figure 3 GPR10 and NPFF2R profiling of in vivo metabolites of GUB03385. (a) IP1 measurement in human GPR10 Chem 1 cells (HTRF technology, CisBio) after 30 min. incubation at 37 °C with metabolites and the native peptide PrRP31. (b) cAMP measurements in human NPFF2R CHO-K cells (HTRF technology, CisBio) at a fixed concentration of 3 µM forskolin after 30 min. incubation at room temperature with metabolites and the native peptide NPSF. Representative curves of three determinations.
The Homogenous Time Resolved Fluorescence (HTRF) technology optimized for Gq coupled receptors has thoroughly been described in the CisBio IP1 kit manual (#62IPAPEC) and in the cAMP assay kit manual for Gi coupled receptors (#62AM9PEC). […] After addition of HTRF® detection reagents and incubation with shaking (2400 rpm) for one hour at room temperature signals at 620 and 665 nm (raw counts: ratio of 665/620) were detected at a ClarioStar plate reader (BMG Labtech, Ortenberg, Germany). Concentration–response evaluation of compounds was performed with 11 concentrations of agonist peptides (covering 3 decades) and EC50 values were calculated by nonlinear regression using sigmoid concentration–response with variable slope. Data were analysed using GraphPad v9.1 software (GraphPad, La Jolla, CA).

EC50: 0.2 nM
Structure (SMILES): CC[C@H](C)[C@H](NC(=O)CNC(=O)[C@H](CCCNC(=N)N)NC(=O)[C@H](CO)NC(=O)[C@H](C)NC(=O)[C@H](Cc1ccc(O)cc1)NC(=O)[C@H](Cc1c[nH]c2ccccc12)NC(=O)[C@H](C)NC(=O)[C@@H]1CCCN1C(=O)[C@H](CC(N)=O)NC(=O)[C@@H](NC(=O)[C@H](CC(=O)O)NC(=O)[C@@H]1CCCN1C(=O)[C@@H](NC(=O)[C@H](CCCNC(=N)N)NC(=O)[C@@H](NC(=O)[C@H](CCC(=O)O)NC(=O)[C@H](CCSC)NC(=O)[C@H](CO)NC(=O)[C@H](Cc1c[nH]cn1)NC(=O)[C@H](CCCNC(=N)N)NC(=O)[C@H](Cc1c[nH]cn1)NC(=O)[C@@H](NC(=O)[C@H](CCCNC(=N)N)NC(=O)[C@@H](N)CO)[C@@H](C)O)[C@@H](C)CC)[C@@H](C)O)[C@@H](C)CC)C(=O)N[C@@H](CCCNC(=N)N)C(=O)N1CCC[C@H]1C(=O)N[C@H](C(=O)NCC(=O)N[C@@H](CCCNC(=N)N)C(=O)N[C@@H](Cc1ccccc1)C(N)=O)C(C)C [PrRP31]
